Reference: ChEMBL document CHEMBL4041482, “Synthesis, evaluation, and CoMFA study of fluoroquinophenoxazine derivatives as bacterial topoisomerase IA inhibitors” (Eur J Med Chem, 2017)

Amino acid sequences for entries named in this document (tags omitted). A change or cut given only in a name is not applied to a line headed by its entry.
UniProt P11388: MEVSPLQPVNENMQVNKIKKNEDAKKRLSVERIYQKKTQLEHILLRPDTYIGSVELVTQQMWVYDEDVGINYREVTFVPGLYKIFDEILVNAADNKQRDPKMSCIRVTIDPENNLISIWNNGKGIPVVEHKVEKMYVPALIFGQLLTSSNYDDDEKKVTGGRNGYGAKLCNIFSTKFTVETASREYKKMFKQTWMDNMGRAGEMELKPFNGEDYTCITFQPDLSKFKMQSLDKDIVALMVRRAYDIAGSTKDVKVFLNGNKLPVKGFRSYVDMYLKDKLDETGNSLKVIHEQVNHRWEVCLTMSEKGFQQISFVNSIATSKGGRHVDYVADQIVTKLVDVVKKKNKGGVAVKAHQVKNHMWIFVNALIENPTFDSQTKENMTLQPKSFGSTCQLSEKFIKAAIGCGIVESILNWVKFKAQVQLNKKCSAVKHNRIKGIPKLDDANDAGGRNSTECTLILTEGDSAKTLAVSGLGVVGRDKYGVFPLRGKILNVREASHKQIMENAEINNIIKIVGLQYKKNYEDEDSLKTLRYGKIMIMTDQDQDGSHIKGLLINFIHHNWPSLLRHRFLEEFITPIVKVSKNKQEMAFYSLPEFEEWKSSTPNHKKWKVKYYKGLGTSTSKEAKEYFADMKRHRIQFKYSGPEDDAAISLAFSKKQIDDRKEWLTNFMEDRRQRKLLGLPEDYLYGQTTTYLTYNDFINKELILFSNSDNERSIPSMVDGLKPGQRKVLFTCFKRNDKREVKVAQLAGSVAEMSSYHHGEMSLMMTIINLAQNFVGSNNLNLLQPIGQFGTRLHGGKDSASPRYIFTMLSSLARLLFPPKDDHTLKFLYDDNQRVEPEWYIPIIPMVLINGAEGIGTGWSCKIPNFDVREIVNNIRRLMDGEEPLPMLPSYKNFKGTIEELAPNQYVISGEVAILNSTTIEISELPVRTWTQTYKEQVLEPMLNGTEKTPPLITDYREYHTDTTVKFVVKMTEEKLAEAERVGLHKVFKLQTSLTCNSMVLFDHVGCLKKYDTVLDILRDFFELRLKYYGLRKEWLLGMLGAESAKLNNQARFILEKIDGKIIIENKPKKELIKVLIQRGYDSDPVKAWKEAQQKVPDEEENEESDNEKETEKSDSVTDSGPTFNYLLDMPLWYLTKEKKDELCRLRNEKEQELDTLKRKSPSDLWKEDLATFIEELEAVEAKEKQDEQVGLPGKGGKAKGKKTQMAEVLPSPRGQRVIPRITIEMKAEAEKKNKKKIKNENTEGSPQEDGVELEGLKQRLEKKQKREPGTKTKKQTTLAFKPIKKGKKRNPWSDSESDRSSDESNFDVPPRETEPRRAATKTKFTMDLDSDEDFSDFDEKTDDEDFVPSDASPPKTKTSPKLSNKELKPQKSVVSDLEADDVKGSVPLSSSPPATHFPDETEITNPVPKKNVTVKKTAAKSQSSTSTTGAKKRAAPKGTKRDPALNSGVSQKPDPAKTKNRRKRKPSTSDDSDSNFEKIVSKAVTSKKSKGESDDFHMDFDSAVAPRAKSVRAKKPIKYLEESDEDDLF

What was measured:
[1] = molecular target: DNA topoisomerase 2-alpha (Homo sapiens, UniProt P11388); test: Inhibition of human topoisomerase-2alpha assessed as reduction in enzyme-mediated decatenation using kinetoplast DNA as substrate after 15 mins by ethidium bromide staining based agarose gel electrophoresis method
Procedure, shortened: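 Compounds added to 185 ng kinetoplast DNA in manufacturer's buffer, then 2 U human topoisomerase IIα. 15 minutes at 37 °C; stopped with sarkosyl-containing buffer; run on 1% agarose gels containing 0.5 μg/mL ethidium bromide, photographed under UV.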

[2] = Inhibition of human topoisomerase type 1B assessed as reduction in enzyme-mediated relaxation of supercoiled pBAD/Thio DNA after 30 mins by agarose gel electrophoresis method
Procedure, shortened: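 Human topoisomerase I, 0.5 U, in manufacturer's reaction buffer; enzyme mixed with compound before 200 ng supercoiled pBAD/Thio plasmid added, 20 μL final. 37 °C for 30 minutes; stopped with SDS/bromophenol blue/glycerol buffer; agarose gel electrophoresis read-out.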

[3] = Inhibition of recombinant Escherichia coli DNA gyrase expressed in Escherichia coli assessed as reduction in enzyme-mediated supercoiling of relaxed circular DNA preincubated with enzyme followed by substrate addition measured after 30 mins by agarose gel electrophoresis method
[4] = Inhibition of recombinant Escherichia coli topoisomerase 1a expressed in Escherichia coli assessed as reduction in enzyme-mediated relaxation of supercoiled pBAD/Thio DNA preincubated with enzyme followed by substrate addition measured after 30 mins by ethidium bromide staining based agarose gel electrophoresis method

Nc1ccc2c(c1)Oc1c(N3CC[C@H](N)C3)c(F)cc3c(=O)c(C(=O)O)cn-2c13
IC50 [1]: 0.97 to 1.95 µM
IC50 [2]: 3.9 µM
IC50 [3]: 3.9 µM

Nc1ccc2c(c1)Oc1c(NCCN3CCOCC3)c(F)cc3c(=O)c(C(=O)O)cn-2c13
IC50 [1]: 3.9 to 7.8 µM
IC50 [4]: 0.97 µM
pIC50 [4]: 6.01
